Compound activity from PubChem BioAssay.
An excerpt weighted towards active compounds, which were near 0.2% of everything screened.
miR-21 FLuc: miR-21 reporter, rising signal | HeLa miR-21 FLuc reporter, luciferase, 48 h | Potency, µM (top dose mostly 38.3 µM) | 340,000 tested, under 10 active | AID 2288; active = well fitted rising curve with a large enough effect; inconclusive = small, poorly fitted or top-dose-only effect; inactive = no such curve, though single readings can be large or run the other way;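 note: miR-21 action dims this reporter so a rising signal means less miR-21 action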
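Luminescence from a firefly luciferase reporter carrying a miR-21 binding site downstream, stably expressed under a CMV promoter in HeLa cells that make miR-21 endogenously, reports miRNA modulation after 48 h compound exposure up to approximately 40uM final.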
Apoferritin bind: candidate novel general anesthetic via apoferritin binding; apoferritin/1-aminoanthracene competitive binding, fluorescence; Potency, µM (highest dose often 77.5 µM), usual class: inhibitors; actives 0.074% (n = 350,000); also: nearly all actives have a fitted effect of over 20% in size
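In PBS, apoferritin at 10 uM is loaded with 1-AMA from a 50% saturated solution. After 10 min of compound exposure at ambient temperature, reduced 535 nm fluorescence indicates probe displacement.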
LDHA inh: inhibitors of human lactate dehydrogenase A; P00338; purified LDHA, NADH/diaphorase-resazurin fluorescence; hits give low values; activity change, % (values are at about 110 or 230 µM); actives 0.15% (n = 480,000); in the data active = activity change below about -30%; inconclusive = mostly about -25% to -30%
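Enzyme activity of human lactate dehydrogenase 5 (2 nM; 0.06 mM NADH, 0.2 mM pyruvate, 5 min, RT) is measured via a resazurin/diaphorase fluorescence readout of residual NADH.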
Of the large screens only hits and unclear results are named; the others gave an inactive call; ! = repeats disagree. Unless noted, calls follow the shape of the dose curve; as a rule, active = well fitted curve in the direction sought with a large enough effect; inconclusive = small, poorly fitted or top-dose-only effect, or another doubt; inactive = no such curve, though single readings can be large; an effect the other way counts as inactive or inconclusive.

Cc1ccccc1NC(=O)C(C#N)=C1CCCCCCC1	none (no result: miR-21 FLuc, Apoferritin bind)
CN(C)C(=O)/C=C/c1ccc(-c2ccccc2F)o1	none (no result: miR-21 FLuc, Apoferritin bind)
CCc1cc(OCCN(C)C)ccc1Cl	LDHA inh -35.2
Cc1cc(OCCOCCN(C)C)ccc1Cl	none
CCOc1ccc(S(=O)(=O)N2CCN(C(C(=O)O)c3c[nH]c4cc(F)ccc34)CC2)cc1 (centres undefined)	none (no result: miR-21 FLuc, Apoferritin bind)
Cc1ccc(-c2c3c(nc4sc5c(c24)CCCC5)CC(C)(C)CC3=O)cc1	none (no result: miR-21 FLuc, Apoferritin bind)
O=C(N1CCCC1)C12CC3CC(CC(C3)C1)C2	none
O=C1NCCN1C(=O)C12CC3CC(CC(C3)C1)C2	Apoferritin bind 14.1µM
O=C(Nc1nnc(-c2cccs2)o1)c1cccc(Oc2ccccc2)c1	LDHA inh -32.8
O=C(Nc1nnc(-c2cccs2)o1)c1cccc(F)c1	none (no result: miR-21 FLuc, Apoferritin bind)
CCCn1c(SCc2ncc(-c3cccc(Cl)c3)o2)n[nH]c1=O	none (no result: miR-21 FLuc, Apoferritin bind)
CCN1CCN(c2cc(C(=O)O)c3cc(NC(=O)C(C)C)ccc3n2)CC1	none (no result: miR-21 FLuc, Apoferritin bind)
CC1CCc2noc(NC(=O)c3cc(=O)c4cc(Br)ccc4o3)c2C1 (centres undefined)	LDHA inh -39.0 (no result: miR-21 FLuc, Apoferritin bind)
Cc1ccc2oc(C(=O)Nc3onc4c3CC(C)CC4)cc(=O)c2c1 (centres undefined)	none (no result: miR-21 FLuc, Apoferritin bind)
Cc1ccc(CNC2CCCc3c2cnn3Cc2ccccc2)s1 (centres undefined)	none (no result: miR-21 FLuc, Apoferritin bind)
COc1cccc(NC(=O)CN(CCc2ccccc2)S(=O)(=O)c2ccc(Cl)cc2)c1	LDHA inh -59.0
COC(=O)c1ccc(NC(=O)CN(CCc2ccccc2)S(=O)(=O)c2ccc(OC)cc2)cc1	none
Cc1nn(-c2ccc(Cl)nn2)c2c1C(c1ccc(C(=O)O)cc1)CC(=O)N2 (centres undefined)	none (no result: miR-21 FLuc, Apoferritin bind)
COc1ccccc1-n1[nH]c(C)c(Cc2ccccc2Cl)c1=O	LDHA inh -43.5 (no result: miR-21 FLuc, Apoferritin bind)
COc1ccccc1-n1[nH]c(C)c(Cc2ccc(Cl)cc2)c1=O	none (no result: miR-21 FLuc, Apoferritin bind)
Cn1ccnc1C(NC(=O)Cc1ccc(-c2ccccc2)cc1)c1ccc(Cl)cc1 (centres undefined)	none (no result: miR-21 FLuc, Apoferritin bind)
COc1cc(/C=C/C(=O)c2cc3ccccc3o2)ccc1OC(C)C	none (no result: miR-21 FLuc, Apoferritin bind)
CC[N+]1(C)CC2CCC(C)(C1)C2(C)C (centres undefined)	LDHA inh -30.5!
O=C(NCc1ccccn1)c1ccc(C(F)(F)F)cc1	none (no result: miR-21 FLuc, Apoferritin bind)
Cc1[nH]c2ccccc2c1C(=O)C(C)Cl (centres undefined)	none (no result: miR-21 FLuc, Apoferritin bind)
O=[N+]([O-])c1cccc(-c2nnc(-c3ccccc3)o2)c1	none
Cc1occc1-c1nnc(-c2cc([N+](=O)[O-])cc([N+](=O)[O-])c2)o1	Apoferritin bind 22.4µM
Cc1cc(NC(=O)COc2cccc(Cl)c2)n(C)n1	none (no result: miR-21 FLuc, Apoferritin bind)
Nc1ccc(N2CCCCC2)c2nonc12	none
Nc1ccc(C2CCCc3nonc32)c2nonc12 (centres undefined)	Apoferritin bind 17.8µM
Cc1ccc(C)c(NC(=O)C(C)NS(=O)(=O)c2ccc3c(c2)CCN3C(=O)N2CCCC2)c1 (centres undefined)	none (no result: miR-21 FLuc, Apoferritin bind)
CN1/C(=C\C=C2/C(=O)Oc3ccccc3C2=O)C(C)(C)c2ccccc21	LDHA inh -49.9
CN1C(=CC=C2C=C(I)C(=O)C(I)=C2)C(C)(C)c2ccccc21	none
COC(=O)Cc1cc(=O)n(-c2nc3ccccc3[nH]2)[nH]1	LDHA inh -40.0
COc1ccc(CC(=O)Nc2nc3ccccc3[nH]2)cc1	none (no result: Apoferritin bind)
FC(F)(F)c1ccc(NC(=S)NC2CC2)cc1	none (no result: miR-21 FLuc, Apoferritin bind)
CCS(=O)(=O)c1ccc2oc(SCC(=O)NC3CCCC(C)C3C)nc2c1 (centres undefined)	Apoferritin bind 50.1µM
CCS(=O)(=O)c1ccc2oc(SCC(=O)NC34CC5CC(CC(C5)C3)C4)nc2c1	Apoferritin bind inconclusive
O=C(Cc1ccc(Cl)cc1Cl)N1CCN(c2ccccc2O)CC1	none (no result: miR-21 FLuc, Apoferritin bind)
COc1cc(C2CC(=O)Oc3c2c(=O)[nH]c2ccccc32)cc2c1OCO2 (centres undefined)	LDHA inh -37.7 (no result: miR-21 FLuc, Apoferritin bind)
COc1cc(C2CC(=O)Oc3c2c(=O)[nH]c2ccccc32)cc(OC)c1OC (centres undefined)	none
Cc1cc(C)c(S(=O)(=O)c2ccccc2)c(OC(=O)c2c(F)cccc2F)n1	LDHA inh -49.9
Cc1cc(C)c(S(=O)(=O)c2ccccc2)c(OC(=O)c2c(Cl)cc(Cl)cc2Cl)n1	none
O=C(C1CCCN(Cc2ccc(F)cc2)C1)N1CCCCC1 (centres undefined)	none
O=C(C1CCCN(Cc2cccnc2)C1)N1CCCCC1 (centres undefined)	LDHA inh -36.1
CC1(C)O[C@@H]2[C@@H](CO[C@@]3(COS(N)(=O)=O)OC(C)(C)O[C@@H]23)O1	none (no result: LDHA inh)
CC1(COS(N)(=O)=O)CCCCC1	Apoferritin bind 5.62µM
O=C1CCCC2=C1C(c1ccc(F)cc1F)Nc1nonc1N2 (centres undefined)	LDHA inh -33.2 (no result: miR-21 FLuc, Apoferritin bind)
O=C1NC2=C(C(=O)CCC2)C(c2ccc3ncccc3c2)N1 (centres undefined)	none
COc1cccc(NC(=O)c2nn(-c3cccc(OC)c3)c(=O)c3ccccc23)c1	none (no result: miR-21 FLuc, Apoferritin bind)
COCCCNc1nc2ccccc2nc1C(C#N)C(=O)OC (centres undefined)	none (no result: miR-21 FLuc, Apoferritin bind)
C[N+](C)(C)CCOC(=O)C1(c2ccccc2)CCCC1	none
CC(C[N+](C)(C)C)OC(=O)C1(c2ccccc2)CCCC1 (centres undefined)	LDHA inh -30.5
CC(C)(C)C(=O)NCc1ccc(-c2csc(NC3CC3)n2)s1	none (no result: miR-21 FLuc, Apoferritin bind)
O=C(Nc1nc(-c2ccc(Cl)s2)cs1)C1CCN(C(=O)C2CC2)CC1	none (no result: miR-21 FLuc, Apoferritin bind)
Brc1cccc[n+]1CCC[n+]1ccccc1Br	LDHA inh -65.1 (no result: miR-21 FLuc, Apoferritin bind)
Cc1cccc[n+]1CCCCCCCCCC[n+]1ccccc1C	none
CCN(CC)/C(C)=N/C(=S)Nc1ccccc1	none (no result: miR-21 FLuc, Apoferritin bind)
COc1ccc(N)cc1OC1CCCC1	none (no result: miR-21 FLuc, Apoferritin bind)
CCOc1ccc(C2=Nn3c(CC)nnc3SC2)cc1	none (no result: miR-21 FLuc, Apoferritin bind)
COc1ccc(OCc2nnc3n2N=C(c2ccc(Br)cc2)CS3)cc1	Apoferritin bind 14.1µM
O=C(O)/C=C\C(=O)NC(Cc1ccccc1)C(=O)O (centres undefined)	none (no result: miR-21 FLuc, Apoferritin bind)
CCc1c(-c2ccc(C)cc2)nc2ccccc2c1C(=O)O	none (no result: miR-21 FLuc, Apoferritin bind)
Cc1ccccc1-n1sc2cc(F)ccc2c1=O	miR-21 FLuc inconclusive
O=c1c2ccccc2sn1-c1ccccc1F	LDHA inh -51.5 (no result: miR-21 FLuc, Apoferritin bind)
Cc1cccc2n[nH]nc12	none (no result: miR-21 FLuc, Apoferritin bind)
O=C(CN1CCN(S(=O)(=O)c2ccc3ccccc3c2)CC1)N1CCc2ccccc2C1	none
O=C(CN1CCN(S(=O)(=O)c2ccccc2F)CC1)N1CCc2ccccc2C1	LDHA inh -46.9 (no result: miR-21 FLuc, Apoferritin bind)
CCOc1cccc(CNCC2CCCO2)c1 (centres undefined)	none (no result: miR-21 FLuc, Apoferritin bind)
S=c1[nH]nc(-c2cc(-c3ccccc3)n[nH]2)n1/N=C/c1ccc(Br)s1	LDHA inh -42.7
S=c1[nH]nc(-c2cc(-c3ccccc3)n[nH]2)n1/N=C/c1c(Cl)cccc1Cl	none
CCOc1ccc2oc(=O)cc(CN3CCOCC3)c2c1	none
CCOc1ccc2oc(=O)cc(CN3CCN(c4ccccc4)CC3)c2c1	LDHA inh -30.2!
O=C(Nc1ccc(C23CC4CC(CC(C4)C2)C3)cc1)c1cccc(Cl)c1	none (no result: miR-21 FLuc, Apoferritin bind)
CC(C)c1ccc(NC(=O)Cn2nc3ccc(S(=O)(=O)C(C)(C)C)nn3c2=O)cc1	none (no result: miR-21 FLuc, Apoferritin bind)
O=C(/C=C/c1ccccc1)Nc1ccc2c(c1)C(=O)NC2=O	none
O=C(/C=C/c1ccccc1Cl)Nc1ccc2c(c1)C(=O)NC2=O	LDHA inh -46.3
